Assays:
bovine oocytes = assay: Oocyte nuclear morphology assessment (GV configuration, GVBD, meiotic progression); assay type: cell-based; conditions: FSH in IVM media with cilostamide, FIG. 8B
Method: At the end of the incubation, COCs were denuded and oocytes were fixed for 30 min in 4% paraformaldehyde in PBS (pH 7.4). Oocytes were then permeabilized in 0.1% Triton X-100 in 0.1% sodium citrate for 1 hour, then transferred to 0.001% 4′,6-diamidino-2-phenylindole (DAPI), a fluorescence stain for nuclear material, for 15 min. Oocytes were rinsed 3 times in PBS+0.03% BSA, mounted on slides and evaluated for nuclear status at 400× using an Olympus fluorescence microscope. Stages of germinal vesicle (GV) and subsequent meiotic development were assessed based on known techniques (Chohan and Hunter, 2003, Anim. Reprod. Sci. 76: 43-51). […]
Bovine COCs were incubated for 2 hours in the pre-IVM phase media as hereinbefore described, followed by 7 hours culture in the presence of FSH, and in the presence or absence of cilostamide (20 μM). Oocytes were then fixed and assessed for meiotic progression and classified as GV (germinal vesical intact—still under meiotic arrest) or GVBD (germinal vesical breakdown—resumption of meiosis). […] The presence of letters (a or b) above each column indicate a statistical difference between the means as determined by ANOVA analysis followed by Bonferronni's post hoc test, P<0.05. […]

[1] = test system: oocyte-cumulus cell gap junctional communication; assay: Oocyte-cumulus cell gap junctional communication assay (calcein transfer); assay type: cell-based, bovine; conditions: after 3 hours of IVM culture post pre-IVM phase, FIG. 7
Method: Cumulus-oocyte gap junctional communication (GJC) was measured by quantitative fluorescence microscopy of calcein transfer to the oocyte as described previously (Thomas et al., 2004, In “Biol. Reprod.”, pp 1142-1149). GJC was measured either after 2 hours of pre-IVM phase or followed by an additional 3 hours of IVM with or without cilostamide (20 μM). A mean number of 10-12 oocytes were used in each treatment group in each of four replicate experiments. After culture, COCs were transferred to a solution of 1 μM calcein-AM (3′,6′-di(O-acetyl)-2′,7′-bis[N,N-bis(carboxymethyl)amino methyl]-fluorescein, tetraacetoxy methyl ester; C-3100; Molecular Probes; Eugene, Oreg., USA) freshly prepared in a BSA-free Bovine VitroCollect (Cook Australia) supplemented with polyvinyl alcohol (PVA; 0.3 mg/ml). […] Prior to fluorescence microphotometry, COCs were completely denuded of their surrounding cumulus cells using vigorous pipetting so that only dye confined within the denuded oocyte after transport via gap junctions was measured. Within 30 minutes of denuding, the intra-oocyte fluorescence emission of calcein in oocytes was measured using a fluorophotometric-inverted microscope (Leica, Wetzlar, Germany). […]

[2] = test system: cAMP concentrations in mouse cumulus-oocyte complexes (COCs); assay: In vivo cAMP concentrations in mouse COCs after eCG and hCG; conditions: following the hCG treatment, FIG. 14A
Method: The data represents the mean cAMP level per COC±SEM of 4 replicates. Each measurement was conducted on 12 COCs.

| Substance | effect on cilostamide delay of progression to M II (bovine oocytes) | levels of gap junctional communication [1] | cAMP concentration in in vivo matured oocytes [2] |
| --- | --- | --- | --- |
| FSH: follicle stimulating hormone (Puregon, Organon) | overridden | had no effect in maintaining the level of gap junctional communication |  |
| hCG: human chorionic gonadotropin, induces oocyte maturation in vivo |  |  | significant increase in cAMP concentration |

— US20120252119A1, “METHODS FOR THE COLLECTION AND MATURATION OF OOCYTES” (priority 2009, published 2012)
